Data on eight compounds can be found in ChEMBL document CHEMBL1141545, “Synthesis and biological evaluation of 3,5-diaminoindazoles as cyclin-dependent kinase inhibitors” (Bioorg Med Chem Lett, 2008).

Structures are written as SMILES.

Test [1] is described as follows: Selectivity for CDK2 over CDK1.
In test [2] the target is Cyclin-dependent kinase 2 (Homo sapiens, UniProt P24941). In words: Inhibition of CDK2.

Take `CCN(CC)c1ccc(CC(=O)Nc2n[nH]c3ccc(N4CCCS4(=O)=O)cc23)cc1`: the Ratio IC50 in test [1] is < 10.
Regarding `O=C(Cc1ccc(O)cc1)Nc1n[nH]c2ccc(N3CCCS3(=O)=O)cc12`, the Ratio IC50 in test [1] was < 10.
Same read-out and setting: for `O=C(Cc1ccc(-c2ccccc2)cc1)Nc1n[nH]c2ccc(N3CCCS3(=O)=O)cc12` the value was < 10.
On the same count and under the same terms, for `CSc1ccc(CC(=O)Nc2n[nH]c3ccc(N4CCCS4(=O)=O)cc23)cc1` the value was < 10; for `O=C(Cc1ccccc1)Nc1n[nH]c2ccc(N3CCCS3(=O)=O)cc12`, < 10; for `CS(=O)(=O)c1ccc(CC(=O)Nc2n[nH]c3ccc(N4CCCS4(=O)=O)cc23)cc1`, < 10.
As to `O=C(Cc1ccc(N2CCCCC2)cc1)Nc1n[nH]c2ccc(N3CCCS3(=O)=O)cc12`, in test [2], the IC50 (usually the midpoint of a concentration-inhibition curve) was determined as 30 nM. Also, the Ratio IC50 in test [1] was < 10.
As to `O=C(Cc1ccc(Cl)cc1)Nc1n[nH]c2ccc(N3CCCS3(=O)=O)cc12`, the Ratio IC50 in test [1] was < 10.
